Source: PMC7385413 (Frontiers in Neuroscience, 2020)

Sequences of proteins named here, by UniProt entry; tags and fusion partners are left off. A change or cut given only in a name is not applied to a line headed by its entry.
UniProt P41145: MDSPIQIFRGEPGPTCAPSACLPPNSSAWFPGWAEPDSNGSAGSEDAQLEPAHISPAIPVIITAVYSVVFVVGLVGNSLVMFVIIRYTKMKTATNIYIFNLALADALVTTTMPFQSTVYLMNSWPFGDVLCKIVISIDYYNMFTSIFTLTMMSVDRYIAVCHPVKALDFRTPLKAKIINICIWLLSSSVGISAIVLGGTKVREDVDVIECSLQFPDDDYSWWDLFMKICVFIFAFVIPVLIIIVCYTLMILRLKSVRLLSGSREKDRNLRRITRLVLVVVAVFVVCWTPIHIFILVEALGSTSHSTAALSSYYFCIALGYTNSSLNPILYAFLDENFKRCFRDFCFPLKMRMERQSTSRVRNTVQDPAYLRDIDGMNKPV

Molecular target: hKOPr (Homo sapiens, UniProt P41145)
Assay: β-arrestin2 recruitment (PathHunter) in U2OS cells expressing β-arrestin2 and hKOPr
Type: cell-based
Design: host or cells: U2OS
Settings: normalized to the vehicle and U50,488 maximum response

C#Cc1occc1[C@@H]1C[C@]2(C)[C@H]3C(=O)[C@@H](OC(C)=O)C[C@@H](C(=O)OC)[C@]3(C)CC[C@H]2C(=O)O1 [16-Ethynyl SalA, 16-Ethynyl Salvinorin A]
β-arrestin2 recruitment Emax ± SEM: 89.0 ± 2.2
